Test results reported in PubChem BioAssay (Tox21).
Values joined by “and” are separate entries in the source; they are usually repeats but may differ in a detail not shown here. Equal entries are not always repeated. Most of the hits are listed elsewhere, so they are rarer here than in the full data. Records with an inconclusive call do not appear. Active and inactive are the calls of the source. Unless noted, the call rests on the fitted dose curve; in most records, active means well fitted activation curve with a large enough effect in the repeat runs; inconclusive means weak or mixed curves; inactive means no such curve, though single readings can be large or run the other way.

The chains behind the UniProt entries cited, without tags or fusion partners. Where a name states a change or a piece, a line headed by the entry shows the natural chain unless it says otherwise.
UniProt P34981: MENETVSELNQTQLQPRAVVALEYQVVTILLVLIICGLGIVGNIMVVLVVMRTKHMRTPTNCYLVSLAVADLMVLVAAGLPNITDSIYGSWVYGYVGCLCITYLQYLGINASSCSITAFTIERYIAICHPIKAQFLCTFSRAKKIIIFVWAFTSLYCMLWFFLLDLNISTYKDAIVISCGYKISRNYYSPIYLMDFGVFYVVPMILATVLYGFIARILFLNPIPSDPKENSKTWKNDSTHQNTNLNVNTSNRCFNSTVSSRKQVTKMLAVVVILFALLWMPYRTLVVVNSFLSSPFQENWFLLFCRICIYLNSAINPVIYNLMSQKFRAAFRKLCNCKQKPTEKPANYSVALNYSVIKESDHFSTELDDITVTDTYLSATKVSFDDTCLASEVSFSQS
UniProt O75469: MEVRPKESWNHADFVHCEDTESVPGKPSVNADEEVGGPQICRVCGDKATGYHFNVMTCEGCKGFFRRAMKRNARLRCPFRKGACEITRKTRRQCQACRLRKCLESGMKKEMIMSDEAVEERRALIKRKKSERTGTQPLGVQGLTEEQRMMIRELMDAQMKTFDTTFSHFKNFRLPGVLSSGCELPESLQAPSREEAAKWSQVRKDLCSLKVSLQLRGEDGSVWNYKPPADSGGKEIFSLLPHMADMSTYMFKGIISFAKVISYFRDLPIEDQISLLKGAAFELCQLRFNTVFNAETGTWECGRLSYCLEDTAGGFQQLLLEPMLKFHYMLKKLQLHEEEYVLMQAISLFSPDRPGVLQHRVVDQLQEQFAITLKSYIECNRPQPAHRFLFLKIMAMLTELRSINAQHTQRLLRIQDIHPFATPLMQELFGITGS

The molecules below were run against Thyrotropin-releasing hormone receptor (Homo sapiens) (UniProt P34981) (assay: qHTS assay to identify small molecule antagonists of the thyrotropin-releasing hormone receptor (TRHR) signaling pathway (AID 1346877; active means well fitted inhibition curve with a large enough effect in the repeat runs, not every such curve was filed as active)). Settings: TRHR-HEK293, TRH-induced calcium fluorescence, antagonist mode; at 10.5 µM (top of the series).
On the % scale 0 is the no-effect control and ±100 the full control effect.

| Compound | activity, negative = inhibition |
| --- | --- |
| O=C(Nc1ccc([N+](=O)[O-])cc1Cl)c1cc(Cl)ccc1O | inactive: -3.54% |
| NNc1nncc2ccccc12 | inactive: 4.6% |
| N[C@@H](CCC(=O)N[C@@H](CS)C(=O)NCC(=O)O)C(=O)O | inactive: -0.194% |

Same assay, conditions: TRHR-HEK293, TRH-induced calcium fluorescence, antagonist mode; at 23.6 µM (top of the series)

| Compound | activity, negative = inhibition |
| --- | --- |
| CC(C)OC(=O)C(C)(C)Oc1ccc(C(=O)c2ccc(Cl)cc2)cc1 | inactive: -2.49% |
| CC(COc1ccccc1)N(CCCl)Cc1ccccc1 (configuration not stated) | inactive: -8.74% |
| CCOC(=O)n1ccn(C)c1=S | inactive: -4.33% |
| CN(C)CCOC(C)(c1ccccc1)c1ccccn1 (configuration not stated) | inactive: 2.84% |
| NC(=O)c1cccnc1 | inactive: 3.7% |
| O=C1OC(c2ccc(O)cc2)(c2ccc(O)cc2)c2ccccc21 | inactive: 0.264% |

Same assay, conditions: TRHR-HEK293, TRH-induced calcium fluorescence, antagonist mode; at 51.3 µM (top of the series)

| Compound | activity, negative = inhibition |
| --- | --- |
| O=C(Nc1ccc([N+](=O)[O-])cc1Cl)c1cc(Cl)ccc1O | inactive: -6.06% |
| CC(C)OC(=O)C(C)(C)Oc1ccc(C(=O)c2ccc(Cl)cc2)cc1 | inactive: -0.0727% |
| CC(COc1ccccc1)N(CCCl)Cc1ccccc1 (configuration not stated) | inactive: -2.61% and inactive: -0.64% |
| CCOC(=O)n1ccn(C)c1=S | inactive: 2.27% |
| CN(C)CCOC(C)(c1ccccc1)c1ccccn1 (configuration not stated) | inactive: 2.53% and inactive: -0.906% |
| NNc1nncc2ccccc12 | inactive: 10.2% |
| NC(=O)c1cccnc1 | inactive: 1.3% and inactive: 0.742% |
| O=C1OC(c2ccc(O)cc2)(c2ccc(O)cc2)c2ccccc21 | inactive: -1.61% and inactive: -0.596% |

Each molecule was assayed against Nuclear receptor subfamily 1 group I member 2 (Homo sapiens) (UniProt O75469) (assay: Human pregnane X receptor (PXR) small molecule agonists, qHTS assay (AID 1346982; further: nearly all actives have a fitted effect of over 35% in size; further: potency means the concentration at half of the fitted maximal effect)). Settings: PXR-Luc HepG2, CYP3A4 luciferase reporter, 24 h; series mostly up to 42.5 µM; activation: at the top concentration.
Method in brief: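 Luciferase signal from ONE-Glo (30 min, room temperature) measured activation of hPXR-driven CYP3A4 reporter expression in PXR-Luc HepG2 cells treated with compounds for 24 hr at 37 C.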

| Compound | activation | Potency |
| --- | --- | --- |
| Cc1cc(N)c2cc(NC(=O)Nc3ccc4nc(C)cc(N)c4c3)ccc2n1 | inactive: -9.37% | – |
| O=C(O)c1cccc([N+](=O)[O-])c1 | – | inactive |
| CC(=O)OCC(=O)[C@@]1(OC(C)=O)[C@@H](C)C[C@H]2[C@@H]3C[C@H](F)C4=CC(=O)C=C[C@]4(C)[C@@]3(F)[C@@H](O)C[C@@]21C | inactive: 24.9% | – |
| O=c1n(CCCN2CCN(c3cccc(Cl)c3)CC2)nc2ccccn12 | – | active: 19.3 µM and active: 11.9 µM |
| Oc1c(Cl)cc(Cl)c(Cl)c1Cc1c(O)c(Cl)cc(Cl)c1Cl | – | active: 8.61 µM and active: 8.63 µM |
| O=NO | – | inactive |
| CC(C)(C)c1ccc(C(=O)O)cc1 | inactive: 8.07% [at 92.4 µM] | – |
| Cc1ccc(O)c([C@H](CCN(C(C)C)C(C)C)c2ccccc2)c1 | – | active: 3.35 µM |
| O=c1oc(=O)c2cc3c(=O)oc(=O)c3cc12 | – | inactive |
| Clc1cccc(Cl)c1NC1=NCCN1 | inactive: -8.36% | – |
| CCCN(CCC)S(=O)(=O)c1ccc(C(=O)O)cc1 | – | inactive |
| COc1cc(NS(=O)(=O)c2ccc(N)cc2)ncn1 | inactive: -6.09% | – |
| CC(C)NCC(O)c1ccc(O)c(O)c1 (configuration not stated) | – | inactive |
| OCCOCCN1CCN(C2=Nc3ccccc3Sc3ccccc32)CC1 | – | active: 16.8 µM and active: 18.8 µM |
| CCCc1ncc(C[n+]2ccccc2C)c(N)n1 | inactive: -15.2% | – |
| CC(C)(C)NCC(O)COc1cccc2c1CCC(=O)N2 (configuration not stated) | inactive: -2.29% | – |
| O=CO | inactive: 3.04% [at 8.39 µM] | – |
| O=c1[nH]c(=O)n([C@H]2C[C@H](O)[C@@H](CO)O2)cc1I | inactive: -3.17% | – |
| NNc1nncc2ccccc12 | – | active: 54.5 µM |
| CC1(C)OC(=O)NC1=O | – | inactive |
| C[N+](C)(C)CCCCCC[N+](C)(C)C | – | inactive |
| O=c1c(O)c(-c2ccc(O)cc2)oc2cc(O)cc(O)c12 | – | active: 60.9 µM and active: 41.3 µM |
| CC(C)NCC(O)COc1ccc(CCOCC2CC2)cc1 (configuration not stated) | inactive: 5.8% | – |
| Oc1ccc2ccccc2c1 | – | active: 62.6 µM and active: 34.4 µM |
| COc1ccc(C2CNC(=O)C2)cc1OC1CCCC1 (configuration not stated) | inactive: 18.3% | – |
| N[C@@H](CCC(=O)N[C@@H](CS)C(=O)NCC(=O)O)C(=O)O | inactive: -5.13% [at 19 µM] | – |
| CN(C)CCC(c1ccccc1)c1ccccn1 (configuration not stated) | – | inactive |
| Cc1cc(CC(=O)O)n(C)c1C(=O)c1ccc(Cl)cc1 | inactive: -1.72% | – |
| CCCc1nn(C)c2c(=O)[nH]c(-c3cc(S(=O)(=O)N4CCN(C)CC4)ccc3OCC)nc12 | – | active: 11.9 µM |
| O=C(O)c1cn(-c2ccc(F)cc2)c2cc(N3CCNCC3)c(F)cc2c1=O | – | inactive |
